Source: patent US7511133B2 (dated 2009)

Target: human A2A adenosine receptors (Homo sapiens, UniProt P29274)
Test: Displacement of [^3H]CGS21680 binding, human A2A adenosine receptors in CHO cells (agonist radioligand)

Work on `CCNC(=O)[C@H]1O[C@@H](n2cnc3c(NC(=O)Nc4ccc(S(=O)(=O)N(C)C(C)C)cc4)ncnc32)C(O)C1O` (stereo partly drawn) [Compound 97, 1-Deoxy-1-[6-[[[[4-[N-(1-methylethyl)-N-(methyl)-aminosulfonyl]phenyl]amino]carbo-nyl]amino]-9H-purin-9-yl]-N-ethyl-β-D-ribofuranuronamide] yielded a Ki greater than 1 µM.
